Tested on: E. coli ATCC#8739
Assay: Minimal inhibitory concentration in a 96-well plate assay, Example 34
Conditions: 37° C., 24 hours, highest tested 5000 μg/ml

Row | Substance | MIC
1 | Copper(II) sulfate | 625 µg/mL
2 | Cobalt(II) chloride hexahydrate | 625 µg/mL
3 | Copper(II) carbonate | 5000 µg/mL
